Test results as given in US12089591B2 (priority 2005, dated 2024).

System: ROUNDUP READY FLEX cotton
Settings: in vivo

For Aluminum chloride hexahydrate, the “effect of metal salt on necrosis (in words)” value was “significantly reduce necrosis”.
